In the experiment the target is P-selectin. As to the kind of experiment: Elisa, inhibition of P-selectin binding to 2,3 sLex. To be noted: P-selectin 300 ng/ml; read-out: IC50 for inhibiting P-selectin binding to 2,3 sLex. Here is the method:
Certain of the invention compounds were tested for their capacity to inhibit P-selectin binding to HL-60 cells, and to a chemical known to bind to P-selectin, 2,3 sLex. The following materials and procedures were used.
Compound (3) of Example 3 and betulinic acid were solubilized in DMF to yield 100 mM solutions.
P-Selectin Detection Solutions. Goat F(ab')2 anti-human IgG (Fc spec.)-biotin and streptavidin-AP were diluted 1:1000 in 1% BSA-TBS with 1 mM Ca^++. An Elisa assay was utilized to measure P-selectin binding to 2,3 sLex, and P-selectin was added at 300 ng/ml. An Elisa assay was also used to assay for the capacity of the invention compounds to inhibit HL-60 cell binding to P-selectin. HL-60 cells were used, and P-selectin was added at 200 ng/ml.
2,3 sLex was coated at 30 pmoles/well to Probind microtiter plates for Elisa. The glycolipid was added at 50 μl/well in 50% MeOH and allowed to evaporate overnight. Elisa plates and HL-60 assay plates were blocked with 5% BSA-TBS Ca^++ for more than an hour at room temperature. The plates were washed with TBS without Ca^++.
Briefly, the assays were conducted as follows. Compound (3) and betulinic acid were added to P-selectin detection solutions at 4, 2, 1, 0.5, 0.25 and 0.125 mM for the HL-60 based assay, and at 2, 1, 0.5, 0.25, 0.125 and 0.063 mM for the assay involving 2,3 sLex. […]

These results are taken from US5643884A, “Lupane triterpenoid derivatives” (Glycomed Incorporated, priority 1993, dated 1997).

As a reminder, the IC50 is the concentration that gives 50% inhibition. For the compound `C=C(C)[C@@H]1CC[C@]2(C(=O)O)CC[C@]3(C)[C@H](CC[C@@H]4[C@@]5(C)CC[C@H](O)C(C)(C)[C@@H]5CC[C@]43C)[C@@H]12` [betulinic acid], the IC50 was ~125 µM.
